The text below walks through data of patent US20070166778.

Data set [1] deals with His-ubiquitin-K48-ubiquitin-biotin.
In data set [2] the target is His-ubiquitin-K63-ubiquitin-biotin.

B1: Full-length USP7 protein (protein)
chain: MNHQQQQQQQKAGEQQLSEPEDMEMEAGDTDDPPRITQNPVINGNVALSDGHNTAEEDMEDDTSWRSEATFQFTVERFSRLSESVLSPPCFVRNLPWKIMVMPRFYPDRPHQKSVGFFLQCNAESDSTSWSCHAQAVLKIINYRDDEKSFSRRISHLFFHKENDWGFSNFMAWSEVTDPEKGFIDDDKVTFEVFVQADAPHGVAWDSKKHTGYVGLKNQGATCYMNSLLQTLFFTNQLRKAVYMMPTEGDDSSKSVPLALQRVFYELQHSDKPVGTKKLTKSFGWETLDSFMQHDVQELCRVLLDNVENKMKGTCVEGTIPKLFRGKMVSYIQCKEVDYRSDRREDYYDIQLSIKGKKNIFESFVDYVAVEQLDGDNKYDAGEHGLQEAEKGVKFLTLPPVLHLQLMRFMYDPQTDQNIKINDRFEFPEQLPLDEFLQKTDPKDPANYILHAVLVHSGDNHGGHYVVYLNPKGDGKWCKFDDDVVSRCTKEEAIEHNYGGHDDDLSVRHCTNAYMLVYIRESKLSEVLQAVTDHDIPQQLVERLQEEKRIEAQKRKERQEAHLYMQVQIVAEDQFCGHQGNDMYDEEKVKYTVFKVLKNSSLAEFVQSLSQTMGFPQDQIRLWPMQARSNGTKRPAMLDNEADGNKTMIELSDNENPWTIFLETVDPELAASGATLPKFDKDHDVMLFLKMYDPKTRSLNYCGHIYTPISCKIRDLLPVMCDRAGFIQDTSLILYEEVKPNLTERIQDYDVSLDKALDELMDGDIIVFQKDDPENDNSELPTAKEYFRDLYHRVDVIFCDKTIPNDPGFVVTLSNRMNYFQVAKTVAQRLNTDPMLLQFFKSQGYRDGPGNPLRHNYEGTLRDLLQFFKPRQPKKLYYQQLKMKITDFENRRSFKCIWLNSQFREEEITLYPDKHGCVRDLLEECKKAVELGEKASGKLRLLEIVSYKIIGVHQEDELLECLSPATSRTFRIEEIPLDQVDIDKENEMLVTVAHFHKEVFGTFGIPFLLRIHQGEHFREVMKRIQSLLDIQEKEFEKFKFAIVMMGRHQYINEDEYEVNLKDFEPQPGNMSHPRPWLGLDHFNKAPKRSRYTYLEKAIKIHN
On to B1, for which the “HTRF signal (Delta F %) of intact substrate after one hour at 37° C. with USP7 at varying concentrations” value in data set [1] is “The decrease in the signal correlates with the increase in enzyme activity i.e. the cleavage of His-Ub-K48-Ub-biotin and His-Ub-K63-Ub-biotin”; in data set [2] it was “The decrease in the signal correlates with the increase in enzyme activity i.e. the cleavage of His-Ub-K48-Ub-biotin and His-Ub-K63-Ub-biotin”; with GST-Ubiquitin-L40-Flag, “The decrease in the signal correlates with the increase in enzyme activity i.e. the cleavage of GST-Ub652-Flag substrate”.
